To fix the notation:
B1: Transcription factor p65 (Homo sapiens), Q04206 (parent)
chain: MDELFPLIFPAEPAQASGPYVEIIEQPKQRGMRFRYKCEGRSAGSIPGERSTDTTKTHPTIKINGYTGPGTVRISLVTKDPPHRPHPHELVGKDCRDGFYEAELCPDRCIHSFQNLGIQCVKKRDLEQAISQRIQTNNNPFQVPIEEQRGDYDLNAVRLCFQVTVRDPSGRPLRLPPVLSHPIFDNRAPNTAELKICRVNRNSGSCLGGDEIFLLCDKVQKEDIEVYFTGPGWEARGSFSQADVHRQVAIVFRTPPYADPSLQAPVRVSMQLRRPSDRELSEPMEFQYLPDTDDRHRIEEKRKRTYETFKSIMKKSPFSGPTDPRPPPRRIAVPSRSSASVPKPAPQPYPFTSSLSTINYDEFPTMVFPSGQISQASALAPAPPQVLPQAPAPAPAPAMVSALAQAPAPVPVLAPGPPQAVAPPAPKPTQAGEGTLSEALLQLQFDDEDLGALLGNSTDPAVFTDLASVDNSEFQQLLNQGIPVAPHTTEPMLMEYPEAITRLVTGAQRPPDPAPAPLGAPGLPNGLLSGDEDFSSIADMDFSALLSQISS

In this assay the parent is B1. As to conditions: with brd4_mouse Brd4.
For the variant K310R, the “effect of a mutation on the interaction” value was “disrupting interaction”.

(Values after IntAct's records for PubMed 19103749.)
